System: VCaP prostate cancer cells (TMPRSS2-ERG)
Assay: 72 h GI50 assay in VCaP
Conditions: read-out: VCaP Prostate Cancer TMPRSS2-ERG GI50, 72 h growth inhibition

Mithramycin SA Phenylalanine [MTMSA-Phe (4), reference compound]
GI50: 150 nM
